Assays:
[1] = test system: Jurkat cells transfected with A2K^b cDNA; assay: In vitro killing assay with CTL from ESO 9V-immunized mice; assay type: cell-based
[2] = test system: 1G4 CTL clone; conditions: substitution of cysteine to valine at position 165; cited from earlier work
[3] = test system: 1G4 CTL clone with peptide-pulsed T2 target cells; assay type: cell-based; conditions: 30 min at 37°C
[4] = test system: 1G4 CTL clone with peptide-pulsed T2 target cells; assay: Live cell video microscopy of CTL lytic granule polarization; assay type: cell-based; conditions: T2 cells pulsed with 1 μM peptide

SLLMWITQV [ESO 9V]
lysis of peptide-loaded target cells by CTL from ESO 9V-immunized mice [1]: as well as target cells loaded with the ESO 9V analogue
ability to sensitize target cells for killing by the 1G4 CTL clone [2]: enhanced its ability to sensitize target cells for killing by the 1G4 CTL clone
granule polarization [3]: granule polarization is much more efficient
rate of lytic granule polarization [4]: granule polarization is rapid
time from initial contact to granule polarization at the synapse ([4]; 1 h at 37°C, single CTL followed): 4 min
